Our source for the IC50 values is patent US8470855B2, “Dual-use peptidase inhibitors as prodrugs for a therapy of inflammatory and other diseases” (IMTM GmbH, priority 2005, dated 2013).

Sequences of proteins named here, by UniProt entry; tags and fusion partners are left off.
UniProt P15145, whole entry: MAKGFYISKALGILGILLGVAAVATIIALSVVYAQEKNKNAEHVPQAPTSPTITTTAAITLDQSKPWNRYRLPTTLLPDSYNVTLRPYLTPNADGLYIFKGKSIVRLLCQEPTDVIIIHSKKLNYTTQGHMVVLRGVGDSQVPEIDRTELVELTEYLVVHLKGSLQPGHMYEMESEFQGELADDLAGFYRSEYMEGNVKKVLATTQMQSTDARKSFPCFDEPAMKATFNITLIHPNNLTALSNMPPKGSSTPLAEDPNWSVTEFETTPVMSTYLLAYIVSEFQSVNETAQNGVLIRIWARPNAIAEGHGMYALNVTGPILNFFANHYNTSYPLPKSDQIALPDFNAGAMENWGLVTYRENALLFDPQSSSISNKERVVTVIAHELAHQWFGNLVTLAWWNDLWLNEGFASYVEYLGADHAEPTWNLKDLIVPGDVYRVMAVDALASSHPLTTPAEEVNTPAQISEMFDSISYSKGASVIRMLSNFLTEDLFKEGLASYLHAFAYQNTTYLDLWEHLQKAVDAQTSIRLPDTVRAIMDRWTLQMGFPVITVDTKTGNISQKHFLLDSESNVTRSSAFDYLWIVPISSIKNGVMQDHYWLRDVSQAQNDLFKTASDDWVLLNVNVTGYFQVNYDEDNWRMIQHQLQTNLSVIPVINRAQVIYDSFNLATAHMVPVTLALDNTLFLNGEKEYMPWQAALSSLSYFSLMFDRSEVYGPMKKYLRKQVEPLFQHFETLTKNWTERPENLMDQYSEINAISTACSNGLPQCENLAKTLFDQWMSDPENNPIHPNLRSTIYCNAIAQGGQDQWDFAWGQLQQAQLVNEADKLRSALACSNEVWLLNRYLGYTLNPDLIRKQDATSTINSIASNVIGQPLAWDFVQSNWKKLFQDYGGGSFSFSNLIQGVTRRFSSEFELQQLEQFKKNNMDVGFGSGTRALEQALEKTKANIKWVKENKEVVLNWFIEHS
UniProt P22411, whole entry: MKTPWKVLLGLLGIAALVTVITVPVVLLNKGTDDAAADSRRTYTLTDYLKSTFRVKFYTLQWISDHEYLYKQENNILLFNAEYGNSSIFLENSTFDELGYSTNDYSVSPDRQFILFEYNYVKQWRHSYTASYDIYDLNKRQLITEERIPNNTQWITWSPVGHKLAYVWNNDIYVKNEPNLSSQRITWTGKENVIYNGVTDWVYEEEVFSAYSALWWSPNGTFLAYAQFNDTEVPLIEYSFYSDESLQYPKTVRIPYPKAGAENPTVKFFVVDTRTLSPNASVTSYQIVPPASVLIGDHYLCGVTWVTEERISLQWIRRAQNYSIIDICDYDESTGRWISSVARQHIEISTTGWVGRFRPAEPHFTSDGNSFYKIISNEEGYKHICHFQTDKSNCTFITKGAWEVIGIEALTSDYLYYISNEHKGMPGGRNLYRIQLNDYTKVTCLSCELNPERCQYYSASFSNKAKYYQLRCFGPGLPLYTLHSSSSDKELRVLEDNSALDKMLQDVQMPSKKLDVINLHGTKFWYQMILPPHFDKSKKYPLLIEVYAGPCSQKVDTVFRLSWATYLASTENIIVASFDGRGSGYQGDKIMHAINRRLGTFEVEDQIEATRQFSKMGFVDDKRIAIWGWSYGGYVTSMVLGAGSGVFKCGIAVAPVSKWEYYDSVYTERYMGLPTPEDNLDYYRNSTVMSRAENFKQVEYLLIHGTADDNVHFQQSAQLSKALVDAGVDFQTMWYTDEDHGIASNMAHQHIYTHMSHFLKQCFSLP

Molecules are shown by their SMILES. Like-named read-outs stand apart in the source and are kept apart here.

In assay [1] the target is APN (Leucin aminopeptidase, microsomal, EC 3.4.11.2) (Sus scrofa, UniProt P15145). As to the kind of experiment: IC50 determination against APN after reduction of the prodrugs with DTT. Conditions: read-out: APN (IC 50 [M]), after release (reduction with DTT) of the inhibitors from the prodrugs, pig kidney enzyme, substrate Leu-AMC, pH 7.2, 30° C. Here is the method: (§1) Process of the Reduction with DTT:
(§2) Same volumes of the 7·10^−2 M solution of the inhibitor in water or DMF and a 0.35 M aqueous DTT-solution (5 equivalents) were agitated 4 hours at RT.
(§3) Subsequently to the reductive treatment of the prodrugs the IC50-values were estimated using the following process:
(§4) Determination of the IC50-Values after Reduction:
Leucin aminopeptidase, microsomal, from pig kidney (EC 3.4.11.2).
Suspension in 3.5 M (NH4)2SO4-solution (Sigma).
Substrate: Leu-AMC, [S]=1.5·10^−4 M (2 Km) in the reaction batch.
Buffer: 40 mM Tris/HCl-buffer, pH 7.2 in the reaction batch.
(§5) By dilution with water 10 to 12 solutions with defined inhibitor concentration were prepared from the reduction batch. These were selected from a relevant concentration range, i.e. between complete inhibition and non-influenced enzyme activity.
(§6) 60 μl of these inhibitor solutions each or water (standard), were incubated with 80 μl of the according diluted enzymes in buffer for 15 minutes at 30° C. and subsequently 60 μl of the according AMC-substrate in water (total volume 200 μl) were added. The release of the 7-Amino-4-methyl-cumarin was traced continuously over a period of 20 minutes at 30° C. using a fluorence-pladt-reader NOVOstar (BMG Labtechnologies). The enzyme concentration was chosen to give a linear increase of the fluorescence during the measuring period.
(§7) The excitation- and emission-wavelengths, respectively, were 390 and 460 nm. The measurements were performed in duplicates. The turn-over rates (increase of fluorescence/minutes) were plotted against the concentration of the inhibitor and the IC50-values were calculated using the computer program GraFit.
(§8) For comparison the IC50-values of established inhibitor against DPIV (H-Lys[Z(NO2)]-thiazolidide) and APN (actinonine) were estimated.

The target in assay [2] is Dipeptidyl peptidase IV (EC 3.4.14.5.) (Sus scrofa, UniProt P22411). The assay can be described thus: IC50 determination against DP IV after reduction of the prodrugs with DTT. Conditions: read-out: DP IV (IC 50 [M]), after release (reduction with DTT) of the inhibitors from the prodrugs, pig kidney enzyme, substrate Ala-Pro-AMC, pH 7.6, 30° C. The procedure: as §1, §2, §3, §4
Dipeptidyl peptidase IV from pig kidney (EC 3.4.14.5.), lyophilisated powder (Sigma).
Substrate: Ala-Pro-AMC, [S]=3·10^−5 M (2 Km) in the reaction batch.
Buffer: 40 mM Tris/HCl-buffer, pH 7.6, I=0.125 in the reaction batch.
as §5, §6, §7, §8

[3] abbreviates: tested form: bis(trifluoroacetate).

Regarding `N[C@@H](CSSC[C@H](N)C(=O)N1CCSC1)C(=O)N1CCSC1`, the IC50 was determined as 0.000108 M in assay [1] (setting [3]) and 8.07e-06 M in assay [2] (setting [3]).
As to `N[C@@H](CSSC[C@H](N)C(=O)N1CCCC1)C(=O)N1CCCC1`, the IC50 in assay [1] worked out at 0.000184 M; in assay [2] it was 2.25e-05 M.
Taken in the same sequence, the figures for `CC(C)(SSCC(N)Cc1ccccc1)C(N)C(=O)N1CCSC1` (stereo not drawn) were 1.08e-07 M and 4.51e-06 M.
